Values of other authors as cited in patent US20090148430A1, “HUMAN OBESITY SUSCEPTIBILTY GENE ENCODING POTASSIUM ION CHANNELS AND USES THEREOF” (priority 2004, published 2009).

Sequences of proteins named here, by UniProt entry; tags and fusion partners are left off.
UniProt P22460, whole entry: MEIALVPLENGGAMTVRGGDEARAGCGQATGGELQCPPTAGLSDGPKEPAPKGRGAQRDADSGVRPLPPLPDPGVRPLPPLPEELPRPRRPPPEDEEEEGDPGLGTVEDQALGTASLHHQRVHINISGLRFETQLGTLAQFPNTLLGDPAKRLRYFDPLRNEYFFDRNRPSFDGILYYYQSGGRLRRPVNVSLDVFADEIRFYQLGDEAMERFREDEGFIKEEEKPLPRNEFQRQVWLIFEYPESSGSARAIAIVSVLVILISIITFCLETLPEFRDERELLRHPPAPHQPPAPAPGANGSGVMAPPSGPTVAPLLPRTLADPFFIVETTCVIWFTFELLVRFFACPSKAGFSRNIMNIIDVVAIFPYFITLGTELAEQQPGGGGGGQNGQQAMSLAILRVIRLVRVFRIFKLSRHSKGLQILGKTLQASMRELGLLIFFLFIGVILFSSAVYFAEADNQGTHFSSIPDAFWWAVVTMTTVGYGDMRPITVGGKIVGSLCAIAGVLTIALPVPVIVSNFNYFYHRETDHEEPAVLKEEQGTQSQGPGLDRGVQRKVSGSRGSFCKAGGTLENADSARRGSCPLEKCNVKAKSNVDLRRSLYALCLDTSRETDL

Tests used:
[1] = target: T1, human Kv1.5 (Homo sapiens, UniProt P22460); conditions: expressed in Xenopus oocytes; read-out: IC(50) block of human Kv1.5
T1 construct: host or cells: Xenopus oocytes

[2] = target: T2, hKv1.5 (Homo sapiens, UniProt P22460); conditions: Chinese hamster ovary (CHO) cells; read-out: IC(50) decrease of steady-state hKv1.5 current
T2 construct: host or cells: Chinese hamster ovary (CHO) cells

IC50 [1]: 6.2 µM
IC50 [2]: 1.1 µM
SMILES: COc1ccc(CC(=O)NCc2ccccc2-c2ccccc2C(=O)NCCc2cccnc2)cc1 [AVE0118]
